The subject of this experiment is Escherichia coli. The experiment is described as follows: Antimicrobial activity against Escherichia coli EPI300 transformant harboring pCC1 by agar dilution method. The format is functional. For orientation: In agar dilution, organisms are placed on agar that contains the substance at set levels.

MIC data for one compound are collected here from ChEMBL document CHEMBL1255295, “Convergent in vivo and in vitro selection of ceftazidime resistance mutations at position 167 of CTX-M-3 beta-lactamase in hypermutable Escherichia coli strains” (2008).

For orientation: MIC means the lowest concentration found to suppress growth.

In brackets after ≈: the same amount, converted by molar mass.

As to `CO/N=C(\C(=O)N[C@@H]1C(=O)N2C(C(=O)O)=C(COC(C)=O)CS[C@H]12)c1csc(N)n1` [CEFOTAXIME], the lowest concentration to inhibit growth (MIC) was 0.06 µg/mL (≈ 0.132 µM).
